According to PubChem BioAssay AID504891 (National Center for Advancing Translational Sciences (NCATS), 2011):
This is a selection; strong and weak results do not stand in their true shares. Results filed as inconclusive are left out. Activity calls are given as the source filed them. The call rests on the fitted dose curve; in most records, active means well fitted inhibition curve with a large enough effect in the polarisation, with a control signal flat (not every such curve was filed as active); inconclusive means small, poorly fitted or top-dose-only effect, or effect the other way, or a change in a side signal; inactive means no such curve, though single readings can be large or run the other way; the % refers to the polarisation.

Amino acid sequences for entries named in this document (tags omitted).
UniProt Q13526, whole entry, looked up: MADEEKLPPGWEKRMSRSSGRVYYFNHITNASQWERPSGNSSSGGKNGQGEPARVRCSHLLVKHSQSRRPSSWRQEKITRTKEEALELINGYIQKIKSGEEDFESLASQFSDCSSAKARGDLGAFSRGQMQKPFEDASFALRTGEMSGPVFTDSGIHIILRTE

Molecular target: Peptidyl-prolyl cis-trans isomerase NIMA-interacting 1 (Homo sapiens) (UniProt Q13526)
Test: qHTS Assay to Find Inhibitors of Pin1
Conditions: Pin1 FP peptide displacement, HiFluor488, 10 min; at 115 µM (top of the series)
On the % scale 0 is the no-effect control and ±100 the full control effect.

Structure (SMILES)	activity, negative = inhibition
CN(C)C1(CNC(=O)c2ccc(Cl)c(S(N)(=O)=O)c2)CCCCC1	inactive: 8.57%
O=P(Nc1ccccn1)(c1ccc(Br)cc1)c1ccc(Br)cc1	inactive: 0.565%
COc1ccc(N)c([N+](=O)[O-])c1[N+](=O)[O-]	inactive: -4.14%
CC(NC(=O)COC(=O)C(O)(c1ccccc1)c1ccccc1)c1ccccc1 (centres undefined)	inactive: 1.59%
Cc1ccccc1OP(=O)(Nc1ccccn1)Oc1ccccc1C	inactive: -9.63%
O=c1c2cc([N+](=O)[O-])ccc2[nH]c2c([N+](=O)[O-])cc([N+](=O)[O-])cc12	inactive: 43.9%
CN(C)C(=O)Oc1noc2ccccc12	inactive: -14.4%
O=C(OC1CN2CCC1CC2)c1ccccc1 (centres undefined)	inactive: 3.01%
CCC(=O)N1C2C3N(C(=O)CC)C1C1N(C(=O)CC)C(C(N1C(=O)CC)N3C(=O)CC)N2C(=O)CC	inactive: 0.891%
COC(=O)c1cc2c(s1)N=C(c1ccccc1)N(C)P2(=O)N1CCOCC1 (centres undefined)	inactive: 5.24%
CC(=O)NC(SC(=S)N(CC(C)C)CC(C)C)C(Cl)(Cl)Cl (centres undefined)	inactive: -1.13%
Cc1ccc(OP(=O)(Nc2ccccn2)Oc2ccc(C)cc2)cc1	inactive: -0.0876%
O=P1(N(CCCl)CCCl)OCCC2CCCCN21 (centres undefined)	inactive: -8.64%
c1ccc(-c2nn[nH]n2)c(-c2nn[nH]n2)c1	inactive: -7.3%
Cc1ccc(NP(=O)(Oc2cccc(C)c2)Oc2cccc(C)c2)nc1	inactive: -1.53%
O=C(NC1CCS(=O)(=O)C1)NP(=S)(Oc1ccccc1)Oc1ccccc1 (centres undefined)	inactive: 6.85%
CCNC(=S)/N=C(\N)N[N+](=O)[O-]	inactive: -1.17%
CC(=O)Nc1ccc([As](=O)(O)O)c(O)c1	inactive: -10.3%
CC(=O)Nc1ccc(Oc2c([N+](=O)[O-])cc([N+](=O)[O-])cc2[N+](=O)[O-])cc1	inactive: -5.63%
C[C@H]1OP(=O)(Oc2ccccc2)C[C@@H]2O[C@@H]21 (some centres undefined)	inactive: -1.49%
C[C@@H]1C=CCP(=O)(Oc2ccccc2)O1 (some centres undefined)	inactive: 1.89%
N#C/C(=C\c1ccc(N(CCBr)CCBr)cc1)C(N)=O	inactive: 25.5%

Structure (SMILES)	activity, negative = inhibition
COC(=O)C1(C)COP(=O)(NCc2ccccc2)OC1 (centres undefined)	inactive: -7.82%
CC(C)(C)C(=O)NC(Sc1ccccc1)C(Cl)(Cl)Cl (centres undefined)	inactive: 7.22%
CCc1cc(O)c([N+](=O)[O-])c(C)c1[N+](=O)[O-]	inactive: -0.718%
CCOc1ccc(C2=NCC(CBr)S2)cc1 (centres undefined)	inactive: 0.221%
Oc1ccccc1CNc1ccccn1	inactive: 1.86%
O=C(NC(Sc1ccncn1)C(Cl)(Cl)Cl)c1ccccc1 (centres undefined)	inactive: -0.432%
Nc1cc(N)c2nonc2c1[N+](=O)[O-]	inactive: 1.22%
CC(C)CC(=O)NC(Sc1ccc(Cl)cc1)C(Cl)(Cl)Cl (centres undefined)	inactive: 1.67%
CN1CCCC(OC(=O)C(c2ccccc2)c2ccccc2)C1 (centres undefined)	inactive: -1.93%
Clc1ccc(Cl)c(NC2=NCC(CBr)S2)c1 (centres undefined)	inactive: 2.8%
COc1ccccc1OP(=O)(Nc1ccc(C)cn1)Oc1ccccc1OC	inactive: -10.3%
Cc1ccc(OP(=O)(Nc2nccs2)Oc2ccc(C)cc2)cc1	inactive: 8.41%
CN(C(=O)Cc1ccc(Cl)c(Cl)c1)[C@H]1CCCC[C@H]1N1CCCC1	inactive: -0.0291%
Cc1ccc(N/C(=N/P(=O)(N2CCOCC2)N2CCOCC2)N2CCOCC2)cc1	inactive: -10.6%
NC(=O)c1cc([N+](=O)[O-])cc([N+](=O)[O-])c1N	inactive: -6.19%
CCN(N=Nc1nonc1N)c1nonc1N	inactive: -0.992%
Cc1cc(SC(NC(=O)c2ccc(F)cc2)C(Cl)(Cl)Cl)ncn1 (centres undefined)	inactive: -0.414%
CCOP(=O)(Nc1ccccc1)OCC	inactive: -5.71%
CN(C(=O)Cc1ccc(Cl)c(Cl)c1)[C@H]1CCCC[C@@H]1N1CCCC1	inactive: -7.49%
Cc1ccc(NP(=O)(Oc2ccccc2F)Oc2ccccc2F)nc1	inactive: -5.65%
O=P(Nc1nc2ccc(Cl)cc2s1)(c1ccccc1)c1ccccc1	inactive: 18.8%
CC(=O)Nc1ccc([As](=O)(O)O)cc1	inactive: -0.683%

Structure (SMILES)	activity, negative = inhibition
O=C(O)c1ccccc1[As](=O)(O)O	inactive: 0.892%
CCCC1OP(N)(=O)OCC1CC (centres undefined)	inactive: -4.2%
O=C(O)CNc1ccc([As](=O)(O)O)cc1	inactive: 9.19%
COC(=O)C1(C)COP(=O)(Nc2ccccc2)OC1 (centres undefined)	inactive: -0.273%
O=[N+]([O-])c1cccc(NC2=NCC(CBr)S2)c1 (centres undefined)	inactive: -6.33%
CC(C)(C)C(=O)NC(Sc1ccncn1)C(Cl)(Cl)Cl (centres undefined)	inactive: 0.125%
O=P(/N=c1/nc(-c2ccccc2)n(-c2ccccc2)s1)(Nc1ccccc1)Nc1ccccc1	inactive: -2.24%
O=C(Nc1cc([As](=O)(O)O)ccc1O)c1ccccc1	inactive: -1.9%
O=P1(N(CCCl)CCCl)OCCCS1 (centres undefined)	inactive: -1.88%
CC1CCN(C(=O)Oc2c(Cl)cc(Cl)c3cccnc23)CC1	inactive: -0.892%
CC(C)=N/N=C(\N)N[N+](=O)[O-]	inactive: -1.64%
CN(C)C(=O)OCCc1n(C)cc[n+]1C	inactive: -5.68%
CCN(/C(=N/P(=O)(N1CCOCC1)N1CCOCC1)N1CCOCC1)c1ccc(OC)cc1	inactive: 2.9%
Nc1ccc([As](=O)(O)c2ccc(N)cc2)cc1	inactive: -7.7%
Cc1ccc(NP(=O)(Oc2ccccc2)Oc2ccccc2)nc1	inactive: -5.07%
O=[N+]([O-])c1cc([N+](=O)[O-])c(CCNc2ccccc2)c([N+](=O)[O-])c1	inactive: 0.146%
CCc1nc2c(n1)c1c(non1O)c1c2no[n+]1[O-]	inactive: -11.1%
CC(=O)N1C2C3N(C(C)=O)C1C1N(C(C)=O)C(C(N1C(C)=O)N3C(C)=O)N2C(C)=O	inactive: 2.43%
O=[N+]([O-])c1cccc2n[nH]nc12	inactive: 0.57%
COc1ccc(C2=NCC(CBr)S2)cc1 (centres undefined)	inactive: 1.07%
